According to patent EP4840863A1, “FLUORINE-CONTAINING PARTHENOLIDE DERIVATIVE, PREPARATION METHOD THEREFOR AND USE THEREOF” (dated 2026):
pIC50: −log10 of the molar value. “And” between values parts separate entries of the source, which are not always exact repeats. Equal entries are not always repeated. One block for each molecule: values may come before it.

Assays:
[1] = system: PANC-1 Cells; assay: Anticancer activity test (CCK-8), PANC-1 cells; details: 72 h, Table 1-1
Method: (§1) Cells in logarithmic growth phase were digested, centrifuged, and counted; the cell suspension was adjusted to a concentration of 1500-3500 cells/well, and 95 µL was seeded into each well of a 96-well plate.
(§2) After continued overnight culture, drugs at different concentrations were added to the plate, with six replicate wells for each concentration. 10 µL of the drug was added to each well, followed by incubation for 72 h. Then, 10 µL of CCK-8 solution was added to each well (care should be taken to avoid generating bubbles in the wells, as they can affect the OD reading). After incubation in the incubator for 1-4 h, the OD value at 450 nm was measured using a microplate reader. The experiment to assess the effect of each drug on each cell line at different time points was repeated three times.
(§3) Data were processed using EXCEL software to calculate the inhibition rate at different concentrations, and SPSS was used to fit the IC50 value. EXCEL was used to calculate the mean and standard deviation of the three IC50 values. Inhibition rate % = {1 - (OD value of drug well - OD value of blank well) / (OD value of control well - OD value of blank well) } * 100%. Table 1-1 Activity of Compounds in Inhibiting Cancer Cells

[2] = system: HT-29; assay: Anticancer activity test (CCK-8), HT-29 cells; details: 72 h, Table 1-1
Method: as §1, §2, §3

[3] = system: U-118; assay: Anticancer activity test (CCK-8), U-118 cells; details: 72 h, Table 1-1
Method: as §1, §2, §3

[4] = Pharmacokinetic study of Compound 4: plasma concentrations (LC/MS); details: for AUC0-t: Plasma
Method: (1) Forty-eight healthy Bar b/c mice, each weighing approximately 20 g, were taken and divided into 3 groups. Blank control group (6 mice), oral gavage administration group (Compound 4 dose: 50 mg/kg, 21 mice), and tail vein injection administration group (Compound 4 dose: 10 mg/kg, 21 mice) (2) For the oral gavage group, blood samples were collected at 5 min, 15 min, 30 min, 1 h, 3 h, 8 h, and 24 h after administration. For the intravenous injection group, blood samples were collected at 2 min, 5 min, 15 min, 30 min, 1 h, 3 h, 8 h, and 24 h after administration. Blood was collected from mice via eyeball removal and placed in anticoagulant tubes containing sodium heparin. The samples were immediately centrifuged at 5000 rpm at low temperature (4°C) for 10 min to obtain plasma samples. The samples were stored in a -80°C freezer for analysis. Three mice were used per time point. (3) The mouse was fixed on a foam board. The skin on the chest was lifted with forceps, and the thoracic skin and ribs were cut open with scissors to expose the heart and liver. The auricle was then cut open. A syringe needle was inserted into the left ventricle of the mouse, and normal saline was perfused for approximately 1 min (10-20 mL) until the mouse's limbs, liver, and tongue turned pale. Brain collection: The skin on the head was cut open to expose the white skull. The cartilage was cut, the skull cap was carefully pried open to expose the white brain, and the entire brain was dissected out. Tissues such as the pancreas, liver, lung, and rectum were also collected. The samples were stored in a -80°C freezer for analysis. (4) The contents of Compound 4 and Compound 1 in peripheral blood and tissues were detected by LC/MS. MS/MS information

[5] = iv (10 mg/kg) Compound 4, 2 min, Mean
[6] = iv (10 mg/kg) Compound 4, 2 min, individual mice, 10 mg/kg
[7] = iv (10 mg/kg) Compound 4, 5min, Mean
[8] = iv (10 mg/kg) Compound 4, 5min, individual mice, 10 mg/kg
[9] = iv (10 mg/kg) Compound 4, 15min, Mean
[10] = iv (10 mg/kg) Compound 4, 15min, individual mice, 10 mg/kg
[11] = iv (10 mg/kg) Compound 4, 30min, Mean
[12] = iv (10 mg/kg) Compound 4, 30min, individual mice, 10 mg/kg
[13] = iv (10 mg/kg) Compound 4, 1h, Mean
[14] = iv (10 mg/kg) Compound 4, 1h, individual mice, 10 mg/kg
[15] = iv (10 mg/kg) Compound 4, 3h, Mean
[16] = po (50 mg/kg) Compound 4, 5min, Mean
[17] = po (50 mg/kg) Compound 4, 5min, individual mice, 50 mg/kg
[18] = po (50 mg/kg) Compound 4, 15min, Mean
[19] = po (50 mg/kg) Compound 4, 15min, individual mice, 50 mg/kg
[20] = po (50 mg/kg) Compound 4, 30min, Mean
[21] = po (50 mg/kg) Compound 4, 30min, individual mice, 50 mg/kg
[22] = po (50 mg/kg) Compound 4, 1h, Mean
[23] = po (50 mg/kg) Compound 4, 1h, individual mice, 50 mg/kg
[24] = po (50 mg/kg) Compound 4, 3h, Mean
[25] = po (50 mg/kg) Compound 4, 8h, Mean

pIC50 [1]: 5.18 | pIC50 [2]: 5.36 | pIC50 [3]: 5.41 | AUC0-t ([4]; iv (10mg/kg) Compound 4): 438 ng·h/mL | AUC0-t ([4]; po (50 mg/kg) Compound 4): 991 ng·h/mL | Blood Concentrations [4, 5]: 1273 ng/mL | Blood Concentrations [4, 6]: 1200 ng/mL and 1270 ng/mL and 1350 ng/mL | Blood Concentrations [4, 7]: 1045 ng/mL | Blood Concentrations [4, 8]: 866 ng/mL and 889 ng/mL and 1380 ng/mL | Blood Concentrations [4, 9]: 389 ng/mL | Blood Concentrations [4, 10]: 369 ng/mL and 366 ng/mL and 431 ng/mL | Blood Concentrations [4, 11]: 198 ng/mL | Blood Concentrations [4, 12]: 187 ng/mL and 212 ng/mL and 194 ng/mL | Blood Concentrations [4, 13]: 68 ng/mL | Blood Concentrations [4, 14]: 56.2 ng/mL and 48.2 ng/mL and 100 ng/mL | Blood Concentrations [4, 15]: 7 ng/mL | Blood Concentrations [4, 16]: 1061.0 ng/mL | Blood Concentrations [4, 17]: 773 ng/mL and 1040 ng/mL and 1370 ng/mL | Blood Concentrations [4, 18]: 1083.3 ng/mL | Blood Concentrations [4, 19]: 1240 ng/mL and 1070 ng/mL and 940 ng/mL | Blood Concentrations [4, 20]: 815.3 ng/mL | Blood Concentrations [4, 21]: 757 ng/mL and 609 ng/mL and 1080 ng/mL | Blood Concentrations [4, 22]: 153.3 ng/mL | Blood Concentrations [4, 23]: 254 ng/mL and 105 ng/mL and 101 ng/mL | Blood Concentrations [4, 24]: 38.3 ng/mL | Blood Concentrations [4, 25]: 0.4 ng/mL
SMILES: CN(C)CC1C(=O)OC2C1CCC(CC(F)(F)F)=CCCC1(C)OC21 (centres unmarked) [Compound 4]

pIC50 [1]: 5.65 | pIC50 [2]: 5.48 | pIC50 [3]: 5.74 | AUC0-t ([4]; iv (10mg/kg) Compound 4): 53 ng·h/mL | AUC0-t ([4]; po (50 mg/kg) Compound 4): 241 ng·h/mL | Plasma Concentrations of the Released Active Substance Compound 1 [4, 5]: 104 ng/mL | Plasma Concentrations of the Released Active Substance Compound 1 [4, 6]: 108 ng/mL and 103 ng/mL and 99.8 ng/mL | Plasma Concentrations of the Released Active Substance Compound 1 [4, 7]: 103 ng/mL | Plasma Concentrations of the Released Active Substance Compound 1 [4, 8]: 74.1 ng/mL and 68.2 ng/mL and 168 ng/mL | Plasma Concentrations of the Released Active Substance Compound 1 [4, 9]: 39.0 ng/mL | Plasma Concentrations of the Released Active Substance Compound 1 [4, 10]: 36.1 ng/mL and 42.0 ng/mL and 38.8 ng/mL | Plasma Concentrations of the Released Active Substance Compound 1 [4, 11]: 18.5 ng/mL | Plasma Concentrations of the Released Active Substance Compound 1 [4, 12]: 16.8 ng/mL and 21.1 ng/mL and 17.6 ng/mL | Plasma Concentrations of the Released Active Substance Compound 1 [4, 13]: 13.6 ng/mL | Plasma Concentrations of the Released Active Substance Compound 1 [4, 14]: 11.7 ng/mL and 12.5 ng/mL and 16.7 ng/mL | Plasma Concentrations of the Released Active Substance Compound 1 [4, 15]: 3.87 ng/mL | Plasma Concentrations of the Released Active Substance Compound 1 ([4]; iv (10 mg/kg) Compound 4, 3h, individual mice, 10 mg/kg): 6.48 ng/mL | Plasma Concentrations of the Released Active Substance Compound 1 ([4]; iv (10 mg/kg) Compound 4, 24h, individual mice): BLOQ | Plasma Concentrations of the Released Active Substance Compound 1 [4, 16]: 101 ng/mL | Plasma Concentrations of the Released Active Substance Compound 1 [4, 17]: 89.6 ng/mL and 80 ng/mL and 133 ng/mL | Plasma Concentrations of the Released Active Substance Compound 1 [4, 18]: 156 ng/mL | Plasma Concentrations of the Released Active Substance Compound 1 [4, 19]: 177 ng/mL and 148 ng/mL and 143 ng/mL | Plasma Concentrations of the Released Active Substance Compound 1 [4, 20]: 124 ng/mL | Plasma Concentrations of the Released Active Substance Compound 1 [4, 21]: 102 ng/mL and 116 ng/mL and 154 ng/mL | Plasma Concentrations of the Released Active Substance Compound 1 [4, 22]: 52.7 ng/mL | Plasma Concentrations of the Released Active Substance Compound 1 [4, 23]: 65.1 ng/mL and 52.4 ng/mL and 40.6 ng/mL | Plasma Concentrations of the Released Active Substance Compound 1 [4, 24]: 21.7 ng/mL | Plasma Concentrations of the Released Active Substance Compound 1 ([4]; po (50 mg/kg) Compound 4, 3h, individual mice, 50 mg/kg): 24.0 ng/mL and 21.7 ng/mL and 19.4 ng/mL | Plasma Concentrations of the Released Active Substance Compound 1 [4, 25]: 3.16 ng/mL | Plasma Concentrations of the Released Active Substance Compound 1 ([4]; po (50 mg/kg) Compound 4, 24h, individual mice): BLOQ
SMILES: C=C1C(=O)OC2C1CCC(CC(F)(F)F)=CCCC1(C)OC21 (centres unmarked)
